In patent publication US20220106400A1 (published 2022):

T1: human GITR on cells (human, UniProt Q9Y5U5 26-241)
T1 chain: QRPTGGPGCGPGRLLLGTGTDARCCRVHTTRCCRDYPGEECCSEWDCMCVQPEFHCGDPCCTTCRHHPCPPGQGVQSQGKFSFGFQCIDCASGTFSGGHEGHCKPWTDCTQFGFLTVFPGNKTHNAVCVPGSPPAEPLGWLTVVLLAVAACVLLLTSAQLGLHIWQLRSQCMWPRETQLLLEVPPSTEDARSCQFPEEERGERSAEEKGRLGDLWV


Biological target: T1, human GITR on cells
Assay: FACS binding to anti-CD3/CD28-activated human CD4 T cells

Binder	EC50 [nM]
anti-GITR-IgG2-IgG1 (antibody) heavy: QVQLVESGGGVVQPGRSLRLSCAASGFTFSSYGMHWVRQAPGKGLEWVAVIWYEGSNKYYADSVKGRFTISRDNSKNTLYLQMNSLRAEDTAVYYCARGGSMVRGDYYYGMDVWGQGTTVTVSSASTKGPSVFPLAPCSRSTSESTAALGCLVKDYFPEPVTVSWNSGALTSGVHTFPAVLQSSGLYSLSSVVTVPSSNFGTQTYTCNVDHKPSNTKVDKTVERKCCVE[human IgG1 Fc skipped] light: AIQLTQSPSSLSASVGDRVTITCRASQGISSALAWYQQKPGKAPKLLIYDASSLESGVPSRFSGSGSGTDFTLTISSLQPEDFATYYCQQFNSYPYTFGQGTKLEIKRTVAAPSVFIFPPSDEQLKSGTASVVCLLNNFYPREAKVQWKVDNALQSGNSQESVTEQDSKDSTYSLSSTLTLSKADYEKHKVYACEVTHQGLSSPVTKSFNRGEC	0.203
anti-GITR-IgG1.1 (antibody) heavy: QVQLVESGGGVVQPGRSLRLSCAASGFTFSSYGMHWVRQAPGKGLEWVAVIWYEGSNKYYADSVKGRFTISRDNSKNTLYLQMNSLRAEDTAVYYCARGGSMVRGDYYYGMDVWGQGTTVTVSSASTKGPSVFPLAPSSKSTSGGTAALGCLVKDYFPEPVTVSWNSGALTSGVHTFPAVLQSSGLYSLSSVVTVPSSSLGTQTYICNVNHKPSNTKVDKKVEPKSCDKTHTCPPCPAPEAEGAPSVFLFPPKPKDTLMISRTPEVTCVVVDVSHEDPEVKFNWYVDGVEVHNAKTKPREEQYNSTYRVVSVLTVLHQDWLNGKEYKCKVSNKALPSSIEKTISKAKGQPREPQVYTLPPSREEMTKNQVSLTCLVKGFYPSDIAVEWESNGQPENNYKTTPPVLDSDGSFFLYSKLTVDKSRWQQGNVFSCSVMHEALHNHYTQKSLSLSPG light: AIQLTQSPSSLSASVGDRVTITCRASQGISSALAWYQQKPGKAPKLLIYDASSLESGVPSRFSGSGSGTDFTLTISSLQPEDFATYYCQQFNSYPYTFGQGTKLEIKRTVAAPSVFIFPPSDEQLKSGTASVVCLLNNFYPREAKVQWKVDNALQSGNSQESVTEQDSKDSTYSLSSTLTLSKADYEKHKVYACEVTHQGLSSPVTKSFNRGEC	0.286
anti-GITR-IgG1 (antibody) heavy: QVQLVESGGGVVQPGRSLRLSCAASGFTFSSYGMHWVRQAPGKGLEWVAVIWYEGSNKYYADSVKGRFTISRDNSKNTLYLQMNSLRAEDTAVYYCARGGSMVRGDYYYGMDVWGQGTTVTVSSASTKGPSVFPLAPSSKSTSGGTAALGCLVKDYFPEPVTVSWNSGALTSGVHTFPAVLQSSGLYSLSSVVTVPSSSLGTQTYICNVNHKPSNTKVDKKV[human IgG1 Fc skipped] light: AIQLTQSPSSLSASVGDRVTITCRASQGISSALAWYQQKPGKAPKLLIYDASSLESGVPSRFSGSGSGTDFTLTISSLQPEDFATYYCQQFNSYPYTFGQGTKLEIKRTVAAPSVFIFPPSDEQLKSGTASVVCLLNNFYPREAKVQWKVDNALQSGNSQESVTEQDSKDSTYSLSSTLTLSKADYEKHKVYACEVTHQGLSSPVTKSFNRGEC	0.257
